From PMC3412733, “Identification and recombinant expression of anandamide hydrolyzing enzyme from Dictyostelium discoideum” (BMC Microbiology, 2012) come the findings set out here.

Sequences of proteins named here, by UniProt entry; tags and fusion partners are left off. Residues count along the entry.
UniProt Q8MMR8, 1-637 limits assumed: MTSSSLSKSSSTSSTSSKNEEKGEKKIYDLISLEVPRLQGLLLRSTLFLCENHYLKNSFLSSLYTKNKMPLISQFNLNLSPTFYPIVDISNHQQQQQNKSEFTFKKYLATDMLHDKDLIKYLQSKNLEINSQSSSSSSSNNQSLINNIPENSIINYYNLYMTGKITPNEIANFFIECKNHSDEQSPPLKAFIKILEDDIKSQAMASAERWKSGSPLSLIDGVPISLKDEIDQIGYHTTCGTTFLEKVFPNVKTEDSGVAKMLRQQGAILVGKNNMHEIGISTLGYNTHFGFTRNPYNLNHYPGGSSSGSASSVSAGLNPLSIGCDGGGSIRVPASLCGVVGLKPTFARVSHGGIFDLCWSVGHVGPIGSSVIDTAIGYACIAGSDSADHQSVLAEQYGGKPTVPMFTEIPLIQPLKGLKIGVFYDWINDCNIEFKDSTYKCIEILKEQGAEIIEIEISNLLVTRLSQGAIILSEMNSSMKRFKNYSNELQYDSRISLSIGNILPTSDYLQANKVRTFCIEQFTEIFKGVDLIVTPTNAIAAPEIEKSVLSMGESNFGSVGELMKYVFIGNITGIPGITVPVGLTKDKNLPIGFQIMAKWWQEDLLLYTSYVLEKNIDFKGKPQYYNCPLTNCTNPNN

The assay addresses HIS-FAAH (Dictyostelium FAAH) (Dictyostelium discoideum, UniProt Q8MMR8). Description: inhibition of ApNA hydrolysis. Particulars: 100 μM ApNA, 30 min, 37°C; irreversible, active site targeted.

As for `CCCCC/C=C\C/C=C\C/C=C\C/C=C\CCCCP(=O)(F)OC` (stereo not shown), the “% inhibition at 1.0 μM” value is ~ 63%.
